In PMC3897731, “Antimicrobial Properties and Membrane-Active Mechanism of a Potential α-Helical Antimicrobial Derived from Cathelicidin PMAP-36” (PLoS ONE, 2014):

Legend:
Conditions in all cases: broth microdilution, MH broth, 1×10^5 CFU/ml, 24 h at 37°C, visible turbidity, triplicate
[1] = test system: Escherichia coli ATCC 25922
Procedure: (§1) The antimicrobial activity of each peptide was determined against the following bacteria strains: Escherichia coli ATCC 25922, Escherichia coli UB1005, Salmonella enterica serovar typhimurium C77-31, Staphylococcus aureus ATCC 29213, Staphylococcus aureus ATCC 25923 and Staphylococcus epidermidis ATCC 12228. The minimal inhibitory concentrations (MICs) of the peptides were measured according to a modified version of the National Committee for Clinical Laboratory Standards (NCCLS) broth microdilution method as described previously. Briefly, mid-logarithmic phase bacteria were cultured in Mueller-Hinton (MH) broth and then diluted to 1×10^5 CFU/ml. Equal volumes (50 µl) of microorganism solution and 2-fold serially diluted different concentrations (0.25–128 µM) peptides in 0.01% (v/v) acetic acid and 0.2% (w/v) bovine serum albumin (BSA, Sigma) were added to each well of the sterile 96-well plate. After incubation for 24 h at 37°C, MICs were determined as the lowest concentration of peptides that prevented visible turbidity by visual inspection. The tests were performed in triplicate. Cultures without peptides and uninoculated MH broth were employed as positive and negative controls, respectively. In addition, the salt stability of the peptides was tested in the MIC assay mentioned above.

[2] = test system: Staphylococcus aureus ATCC 29213
Procedure: as §1

[3] = test system: Staphylococcus aureus ATCC 25923
Procedure: as §1

CC[C@H](C)[C@H](NC(=O)CN)C(=O)NCC(=O)N[C@@H](C)C(=O)N[C@H](C(=O)N[C@@H](CC(C)C)C(=O)N[C@@H](CCCCN)C(=O)N[C@H](C(=O)N[C@@H](CC(C)C)C(=O)N[C@H](C(=O)N[C@H](C(=O)NCC(=O)N[C@@H](CC(C)C)C(=O)N1CCC[C@H]1C(=O)N[C@@H](C)C(=O)N[C@@H](CC(C)C)C(=O)N[C@H](C(=O)N[C@@H](CO)C(=O)N[C@@H](Cc1c[nH]c2ccccc12)C(=O)N[C@H](C(=O)N[C@@H](CCCCN)C(=O)N[C@@H](CCCNC(=N)N)C(=O)N[C@@H](CCCCN)C(=O)N[C@@H](CCCNC(=N)N)C(=O)N[C@@H](CCC(N)=O)C(=O)N[C@@H](CCC(N)=O)C(N)=O)[C@@H](C)CC)[C@@H](C)CC)[C@@H](C)O)[C@@H](C)O)C(C)C)C(C)C [melittin, reference compound]
MIC E. coli ATCC25922 [1]: 2 µM (≈ 5.69 µg/mL) | MIC S. aureus ATCC 29213 [2]: 8 µM (≈ 22.8 µg/mL) | MIC S. aureus ATCC 25923 [3]: 8 µM (≈ 22.8 µg/mL)

Values after ≈ are worked out from the molar mass of the structure shown.
